# Measurements published in paper PMC3849192, “A Simple Method for Assessing Free Brain/Free Plasma Ratios Using an In Vitro Model of the Blood Brain Barrier” (PLoS ONE, 2013).
# System: in vitro BBB model (co-culture of bovine brain capillary endothelial cells and rat glial cells)
# Assay: In vitro BBB co-culture model, Cu,br/Cu,pl ratio
smiles,measurement,setting,value
Cc1nc2n(c(=O)c1CCN1CCC(c3noc4cc(F)ccc34)CC1)CCCC2 [Risperidone],"In vitro Cu,br/Cu,pl Mean 1 h","2 µM in luminal compartment, abluminal/luminal concentration at 1 h",0.56
same,"In vitro Cu,br/Cu,pl Mean steady-state",steady-state ratio computed from 1 h data with the blue-norna steady-state calculator,0.60
